Source: patent US20240408246A1, “Animal Model With Rapid Onset Of Alzheimer's Amyloid Beta Plaque Pathology” (Regeneron Pharmaceuticals, Inc., priority 2023, published 2024)

Tested on: AAV-APP/PS1 mouse model
Experiment: Prophylactic anti-Aβ antibody treatment in the AAV-APP/PS1 mouse model
Format: in vivo
Conditions: weekly antibody for 7 weeks from 1 week post-AAV injection
Method: Antibody treatment was started 1 week post-AAV injection to induce amyloid plaque deposition. Antibody was administered weekly for 7 weeks before taking down the mice 1 week after the final antibody administration.
We tested an anti-Aβ antibody, Aducanumab, which is known to clear plaques in Alzheimer's patients, in the AAV-APP/PS1 mouse model described in Example 1. We started antibody treatment 1 week post-AAV injection in the hippocampus to induce amyloid plaque deposition. We did weekly antibody administration for 7 weeks and took down the mice 1 week after the final antibody administration (FIG. 20A).

Aducanumab
levels of APP and intracellular APP C-terminal fragments: did not change
plaque-associated dystrophic neurite marker Lamp1 (compared to control antibody): significantly reduced
plaque levels (taken down 1 week after final administration, compared to control antibody): significantly reduced
